Entries after “also recorded” stand apart in the source; their conditions may differ.
Tests used:
[1] = biological target: hGPR6 (Homo sapiens, UniProt P46095); details: HEK GPR6 cell line
[2] = biological target: T1, hGPR12 (Homo sapiens, UniProt P47775); details: HEK GPR12 cell line
T1 sequence (P47775 1-334): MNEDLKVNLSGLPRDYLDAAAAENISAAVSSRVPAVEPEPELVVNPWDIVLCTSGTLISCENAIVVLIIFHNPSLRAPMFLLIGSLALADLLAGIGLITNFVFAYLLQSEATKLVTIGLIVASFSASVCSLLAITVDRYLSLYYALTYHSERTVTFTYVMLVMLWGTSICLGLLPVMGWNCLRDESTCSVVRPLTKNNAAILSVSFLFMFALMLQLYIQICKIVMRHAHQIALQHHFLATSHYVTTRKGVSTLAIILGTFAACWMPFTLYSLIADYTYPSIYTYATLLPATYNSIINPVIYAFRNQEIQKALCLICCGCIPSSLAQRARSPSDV

Amino acid sequences for entries named in this document (tags omitted).
UniProt P46095, whole entry R220Y: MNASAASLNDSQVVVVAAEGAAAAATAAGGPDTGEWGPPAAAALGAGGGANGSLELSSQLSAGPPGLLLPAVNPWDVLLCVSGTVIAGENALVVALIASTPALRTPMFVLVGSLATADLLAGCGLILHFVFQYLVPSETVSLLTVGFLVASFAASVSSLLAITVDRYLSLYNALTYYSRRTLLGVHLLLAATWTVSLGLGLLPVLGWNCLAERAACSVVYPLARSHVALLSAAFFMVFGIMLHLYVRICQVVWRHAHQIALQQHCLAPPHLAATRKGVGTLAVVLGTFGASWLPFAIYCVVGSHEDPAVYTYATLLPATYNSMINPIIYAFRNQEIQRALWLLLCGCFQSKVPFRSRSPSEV

[3] = biological target: GPR6 R220Y mutant (Homo sapiens, UniProt P46095, R220Y); experiment: cAMP accumulation, GPR6 R220Y mutant receptor; type: cell-based
[4] = tested on: HEK parental cell line; experiment: cAMP accumulation in HEK parental cell line; details: up to 10 μM

In the case of `FC(F)(F)Oc1ccc2c(c1)[I+]c1ccccc1-2` [Compound 32], the “increase of cAMP response over basal levels” value [1] is reported as “but not GPR6, GPR12, or in HEK293 cells alone”, the “increase of cAMP response over basal levels” value [2] is reported as “but not GPR6, GPR12, or in HEK293 cells alone” and the “activity in GPR6 R220Y mutant” value [3] is reported as “did not confer activity; also recorded: no activity”. The “increase of cAMP” value [4] was “Neither compound increased cAMP; also recorded: but not GPR6, GPR12, or in HEK293 cells alone”.
